Laboratory results from patent US7193127B1, “Codeinone reductase from alkaloid poppy” (priority 1999, dated 2007).

Tested on: codeinone reductase isoforms
Format: biochemical, Papaver somniferum
Details: NADPH as cofactor; physiologically forward reaction
Experimental: The two other potential substrates for reduction, the 1,2-dehydroreticulinium ion and salutaridine (FIG. 1), or for the physiologically reverse reaction, salutaridinol and (R)-reticuline, were tested as substrates; with the codeinone reductase isoforms.
In order to test for a functional evolutionary relationship between isoflavonoid and alkaloid anabolism, codeinone reductase was analyzed for the ability to substitute for the reductase in the formation of 6-deoxychalcone in co-action with either native chalcone synthase or native stilbene synthase from Pinus sylvestris.

In the case of `CN1CC[C@]23c4c5ccc(O)c4O[C@H]2C(=O)CC[C@H]3[C@H]1C5` [hydromorphone], the “serves as substrate in the reductive reaction” value is reported as “functions”.
